How the values were obtained:
ER = ER (Homo sapiens, UniProt P03372); assay: residence time imaging of ER (track length survival); assay type: cell-based; design: expressed in transfected cells; conditions: track length distribution, long frame exposures; versus DMSO
[1] = target: T1, progesterone receptor (PR) (Homo sapiens, UniProt P06401); assay: htSMT of Halo-PR in U2OS cells; assay type: cell-based; conditions: 1 μM antagonist, absence or presence of cognate agonist; FIG. 34B
T1 sequence (P06401 1-933): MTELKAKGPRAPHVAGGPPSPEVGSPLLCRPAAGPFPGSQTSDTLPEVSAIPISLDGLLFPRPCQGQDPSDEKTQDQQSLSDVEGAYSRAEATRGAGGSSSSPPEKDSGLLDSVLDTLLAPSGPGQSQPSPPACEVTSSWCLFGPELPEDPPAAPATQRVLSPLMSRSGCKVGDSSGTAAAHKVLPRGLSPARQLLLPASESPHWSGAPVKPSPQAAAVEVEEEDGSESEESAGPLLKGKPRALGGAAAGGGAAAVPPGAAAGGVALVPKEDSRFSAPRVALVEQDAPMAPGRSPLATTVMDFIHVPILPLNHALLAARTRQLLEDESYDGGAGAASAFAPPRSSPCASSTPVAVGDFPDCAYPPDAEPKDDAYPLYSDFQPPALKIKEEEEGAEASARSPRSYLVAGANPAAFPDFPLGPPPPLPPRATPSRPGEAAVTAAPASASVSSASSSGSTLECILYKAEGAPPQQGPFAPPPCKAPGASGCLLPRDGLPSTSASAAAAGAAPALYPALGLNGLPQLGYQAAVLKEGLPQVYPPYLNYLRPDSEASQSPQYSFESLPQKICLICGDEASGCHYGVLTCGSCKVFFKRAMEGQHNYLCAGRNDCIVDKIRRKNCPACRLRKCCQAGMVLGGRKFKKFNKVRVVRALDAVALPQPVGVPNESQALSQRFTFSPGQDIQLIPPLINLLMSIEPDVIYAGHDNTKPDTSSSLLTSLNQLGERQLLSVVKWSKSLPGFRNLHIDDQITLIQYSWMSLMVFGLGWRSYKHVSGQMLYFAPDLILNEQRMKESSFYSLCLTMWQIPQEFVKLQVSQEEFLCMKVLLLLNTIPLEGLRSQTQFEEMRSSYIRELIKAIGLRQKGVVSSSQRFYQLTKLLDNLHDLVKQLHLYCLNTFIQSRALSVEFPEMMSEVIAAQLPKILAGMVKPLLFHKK

By UniProt entry, the sequences of proteins in these tests, tags left out.
UniProt P03372, whole entry: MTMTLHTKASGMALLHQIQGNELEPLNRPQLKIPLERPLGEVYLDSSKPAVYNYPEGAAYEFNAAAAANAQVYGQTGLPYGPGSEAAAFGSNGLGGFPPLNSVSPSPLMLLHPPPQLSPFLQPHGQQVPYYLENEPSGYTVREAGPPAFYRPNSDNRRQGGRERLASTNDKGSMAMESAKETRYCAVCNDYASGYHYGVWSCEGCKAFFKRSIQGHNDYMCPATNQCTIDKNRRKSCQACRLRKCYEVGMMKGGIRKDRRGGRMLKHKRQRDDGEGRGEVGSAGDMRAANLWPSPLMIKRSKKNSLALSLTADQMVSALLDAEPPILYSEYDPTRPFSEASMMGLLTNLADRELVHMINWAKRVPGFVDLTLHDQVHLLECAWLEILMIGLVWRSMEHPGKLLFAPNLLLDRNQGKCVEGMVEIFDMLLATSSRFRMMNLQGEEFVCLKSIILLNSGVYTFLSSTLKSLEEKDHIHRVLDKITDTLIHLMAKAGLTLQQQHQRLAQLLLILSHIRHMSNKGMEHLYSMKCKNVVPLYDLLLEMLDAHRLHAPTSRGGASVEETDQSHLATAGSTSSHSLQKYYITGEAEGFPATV

| SMILES | binding times (relative ER residence times) (ER) | change in PR chromatin binding (fbound) [1] |
| --- | --- | --- |
| C[C@]12CC[C@@H]3c4ccc(O)cc4C[C@@H](CCCCCCCCC[S+]([O-])CCCC(F)(F)C(F)(F)F)[C@H]3[C@@H]1CC[C@@H]2O (some centres unmarked) [fulvestrant] | longer binding times compared with other ER modulators | – |
| CC#C[C@]1(O)CC[C@H]2[C@@H]3CCC4=CC(=O)CCC4=C3[C@@H](c3ccc(N(C)C)cc3)C[C@@]21C [mifepristone] | – | behaves similarly to ER antagonists |

— patent US20250314640A1, “SYSTEMS AND METHODS FOR HIGH THROUGHPUT SINGLE MOLECULE TRACKING IN LIVING CELLS” (EIKON THERAPEUTICS, INC., priority 2022, published 2025)
